From patent publication US20260028336A1 (Arcus Biosciences, Inc., priority 2022, published 2026)

Tested on: Jurkat cells
Test: IL-2 secretion assay in CD3/CD28-activated Jurkat cells (AlphaLISA)
Type: cell-based
Settings: Homo sapiens, 24 h, read-out: IL-2 Secretion (EC50)
Experimental: Certain compounds were also evaluated in an IL-2 secretion assay. On the day of the assay, a 16 point, 1:2 master serial dilution of each compound was prepared in Opti-MEM to span a final concentration range of 10 μM to 300 pM. Assays were set up in CORNING® tissue culture-treated 384-well microplates containing 60 nL of each dilution. […] 50,000 cells/well and added to the compound plates. After a short spin (1200 rpm for 1 min), the plates were incubated at 37° C. for 1 hour. The cells were activated by adding 15 μL of IMMUNOCULT™ Human CD3/CD28 T Cell Activator ([…] Technologies) diluted in Opti-MEM. […] The AiphaLISA signal was measured using an EnVision plate reader (PerkinElmer). EC50 values were determined by fitting the data to a standard 4-parameter logistic equation.

Compound | EC50 [µM]
C[C@H]1CCCN(Cc2cc3c(C(F)(F)F)cn(-c4cccc([C@]5(c6nncn6C)C[C@@H](C)C5)c4)c(=O)c3[nH]2)C1 [Example 106, 4-cyclopropyl-2-{[(3S,5S)-3,5-difluoropiperidin-1-yl]methyl}-6-{3-[(1r,3s)-3-methyl-1-(4-methyl-4H-1,2,4-triazol-3-yl)cyclobutyl]phenyl}-1H,6H,7H-pyrrolo[2,3-c]pyridin-7-one] | < 0.1
CC1CC(c2cccc(-n3cc(C(F)(F)F)c4cc(CN5CCC[C@H](C)C5)[nH]c4c3=O)c2)(c2nncn2C)C1 (stereo partly drawn) [Example 104, 6-{3-[3-methyl-1-(4-methyl-4H-1,2,4-triazol-3-yl)cyclobutyl]phenyl}-2-{[(3S)-3-methylpiperidin-1-yl]methyl}-4-(trifluoromethyl)-1H,6H,7H-pyrrolo[2,3-c]pyridin-7-one] | < 0.1
